Here are results for one molecule from publication PMC11370000 (Nature cell biology, 2023).

This assay has as its target GST-RCC1L (amino acids 32-464) (human, UniProt Q96I51 32-464). Put plainly: pull-down.

B1: 6xHis-NME6 (NME6-WT, recombinant) (natural protein, human, UniProt O75414-4 1-194, looked up)
chain: MTQNLGSEMASILRSPQALQLTLALIKPDAVAHPLILEAVHQQILSNKFLIVRMRELLWRKEDCQRFYREHEGRFFYQRLVEFMASGPIRAYILAHKDAIQLWRTLMGPTRVFRARHVAPDSIRGSFGLTDTRNTTHGSDSVVSASREIAAFFPDFSEQRWYEEEEPQLRCGPVCYSPEGGVHYVAGTGGLGPA
With B1, the binding result is listed as “binds”.
